From patent US20060094649A1, “Hla-a1,-a2,-a3,-a24,-b7, and-b44 tumor associated antigen peptides and compositions” (priority 2002, published 2006) come the findings set out here.

Assay [1] relates to HLA-A3 supertype molecules. Put plainly: HLA-A3 supertype cross-binding (A*0301, A*1101, A*3101, A*3301, A*6801).
Assay [2] concerns HLA-B44 supertype molecules. Put plainly: HLA-B44 supertype cross-binding. More on the design: species or system human. Conditions: number of the six B44 supertype alleles bound.
[3] abbreviates: MAGE2-derived B44 peptides, Table 29.

Consider `CC(C)C[C@H](NC(=O)CNC(=O)[C@H](Cc1ccccc1)NC(=O)[C@H](CC(=O)O)NC(=O)[C@@H](NC(=O)[C@@H](NC(=O)[C@@H](N)CCCCN)C(C)C)[C@@H](C)O)C(=O)N[C@@H](C)C(=O)N[C@@H](CCCNC(=N)N)C(=O)O`, for which the “No. A3 supertype alleles crossbound (200)” value in assay [1] is reported as 3.
The compound `C[C@H](NC(=O)[C@H](Cc1c[nH]cn1)NC(=O)[C@H](Cc1ccc(O)cc1)NC(=O)[C@H](CCC(=O)O)NC(=O)[C@@H](NC(=O)[C@H](CCC(=O)O)NC(=O)[C@@H](N)CC(=O)O)[C@@H](C)O)C(=O)N[C@@H](CC(=O)O)C(=O)NCC(=O)O` [compound 562] yielded a Degeneracy in assay [2] of 1.
For `C[C@H](NC(=O)[C@H](Cc1c[nH]cn1)NC(=O)[C@H](Cc1ccc(O)cc1)NC(=O)[C@H](CCC(=O)O)NC(=O)[C@@H](NC(=O)[C@H](CCC(=O)O)NC(=O)[C@@H](N)CC(=O)O)[C@@H](C)O)C(=O)N[C@@H](CC(=O)O)C(=O)NCC(=O)NCC(=O)O` [compound 563], the Degeneracy in assay [2] stood at 1.
In assay [2] (p53-derived B44 peptides, Table 28), `CC[C@H](C)[C@H](NC(=O)[C@@H](NC(=O)[C@@H](NC(=O)[C@H](CS)NC(=O)[C@H](CC(=O)O)NC(=O)[C@H](CO)NC(=O)CNC(=O)[C@@H](NC(=O)[C@H](CCC(=O)O)NC(=O)[C@@H]1CCCN1)C(C)C)[C@@H](C)O)[C@@H](C)O)C(=O)N[C@@H](Cc1c[nH]cn1)C(=O)N[C@@H](Cc1ccc(O)cc1)C(=O)O` [compound 643] gave a Degeneracy of 0.
In assay [2] (setting [3]), `CC[C@H](C)[C@H](NC(=O)[C@H](C)NC(=O)[C@H](C)NC(=O)[C@H](CCC(N)=O)NC(=O)[C@H](Cc1ccccc1)NC(=O)[C@H](CCC(=O)O)NC(=O)[C@H](CO)NC(=O)[C@H](CCC(=O)O)NC(=O)[C@@H](N)CC(C)C)C(=O)O` [compound 645] had a Degeneracy of 6.
`CC[C@H](C)[C@H](NC(=O)[C@H](C)NC(=O)[C@H](C)NC(=O)[C@H](CCC(N)=O)NC(=O)[C@H](Cc1ccccc1)NC(=O)[C@H](CCC(=O)O)NC(=O)[C@H](CO)NC(=O)[C@H](CCC(=O)O)NC(=O)[C@@H](N)CC(C)C)C(=O)N[C@@H](CO)C(=O)N[C@@H](CCCNC(=N)N)C(=O)N[C@@H](CCCCN)C(=O)N[C@@H](CCSC)C(=O)O` [compound 646] yielded a Degeneracy in assay [2] (setting [3]) of 6.
As to `CC[C@H](C)[C@H](NC(=O)[C@H](C)NC(=O)[C@H](C)NC(=O)[C@H](CCC(N)=O)NC(=O)[C@H](Cc1ccccc1)NC(=O)[C@H](CCC(=O)O)NC(=O)[C@@H](N)CO)C(=O)N[C@@H](CO)C(=O)N[C@@H](CCCNC(=N)N)C(=O)N[C@@H](CCCCN)C(=O)N[C@@H](CCSC)C(=O)O` [compound 647], the Degeneracy in assay [2] (setting [3]) is 6.
Same read-out and setting: then `CC(C)C[C@H](NC(=O)[C@H](Cc1ccc(O)cc1)NC(=O)[C@H](CCC(=O)O)NC(=O)[C@@H](N)CO)C(=O)N[C@@H](CCC(N)=O)C(=O)N[C@@H](CC(C)C)C(=O)N[C@H](C(=O)N[C@@H](Cc1ccccc1)C(=O)NCC(=O)O)C(C)C` [compound 649], with 6; and `CC[C@H](C)[C@H](NC(=O)CNC(=O)[C@H](Cc1ccccc1)NC(=O)[C@@H](NC(=O)[C@H](CC(C)C)NC(=O)[C@H](CCC(N)=O)NC(=O)[C@H](CC(C)C)NC(=O)[C@H](Cc1ccc(O)cc1)NC(=O)[C@H](CCC(=O)O)NC(=O)[C@@H](N)CO)C(C)C)C(=O)O` [compound 650], with 6.
As for `CC[C@H](C)[C@H](NC(=O)CNC(=O)[C@H](Cc1ccccc1)NC(=O)[C@@H](NC(=O)[C@H](CC(C)C)NC(=O)[C@H](CCC(N)=O)NC(=O)[C@H](CC(C)C)NC(=O)[C@H](Cc1ccc(O)cc1)NC(=O)[C@H](CCC(=O)O)NC(=O)[C@@H](N)CO)C(C)C)C(=O)N[C@@H](CCC(=O)O)C(=O)N[C@H](C(=O)N[C@H](C(=O)O)C(C)C)C(C)C` [compound 651], the Degeneracy in assay [2] (setting [3]) was 6.
The same measure, in the same setting: then `CC(C)C[C@H](NC(=O)[C@H](Cc1ccc(O)cc1)NC(=O)[C@H](CC(N)=O)NC(=O)[C@H](CCC(=O)O)NC(=O)[C@@H](N)CCC(N)=O)C(=O)N[C@@H](CCC(=O)O)C(=O)N[C@@H](Cc1ccc(O)cc1)C(=O)N[C@@H](CCCNC(=N)N)C(=O)N[C@@H](CCC(N)=O)C(=O)N[C@H](C(=O)O)C(C)C` [compound 653], with 6.
Consider `CC[C@H](C)[C@H](NC(=O)[C@H](CC(C)C)NC(=O)[C@H](C)NC(=O)[C@H](CCCNC(=N)N)NC(=O)[C@@H]1CCCN1C(=O)CNC(=O)[C@H](Cc1c[nH]c2ccccc12)NC(=O)[C@H](CC(C)C)NC(=O)[C@H](Cc1ccccc1)NC(=O)[C@H](CCC(=O)O)NC(=O)[C@@H](N)Cc1ccc(O)cc1)C(=O)O` [compound 654], for which the Degeneracy in assay [2] (setting [3]) amounted to 6.
In assay [2] (setting [3]), `CC(C)C[C@H](NC(=O)[C@@H](NC(=O)[C@@H](NC(=O)[C@H](CCC(=O)O)NC(=O)[C@@H](N)C(C)C)C(C)C)[C@@H](C)O)C(=O)NCC(=O)N[C@@H](CCC(=O)O)C(=O)N[C@H](C(=O)N1CCC[C@H]1C(=O)N[C@@H](C)C(=O)O)C(C)C` [compound 656] came in with a Degeneracy of 5.
Compound `CSCC[C@H](NC(=O)[C@H](CCCNC(=N)N)NC(=O)[C@@H]1CCCN1C(=O)CNC(=O)[C@H](CCC(=O)O)NC(=O)[C@@H](N)CCC(=O)O)C(=O)N[C@@H](Cc1ccccc1)C(=O)N1CCC[C@H]1C(=O)N[C@@H](CC(=O)O)C(=O)N[C@@H](CC(C)C)C(=O)O` [compound 657] showed a Degeneracy in assay [2] (setting [3]) of 5.
`CSCC[C@H](NC(=O)[C@H](CO)NC(=O)[C@H](CC(C)C)NC(=O)[C@H](CCC(=O)O)NC(=O)[C@H](CCC(=O)O)NC(=O)[C@@H](N)Cc1c[nH]c2ccccc12)C(=O)N[C@@H](CC(C)C)C(=O)N[C@@H](CCC(=O)O)C(=O)N[C@H](C(=O)O)C(C)C` [compound 680] had a Degeneracy in assay [2] (setting [3]) of 4.
`CSCC[C@H](NC(=O)[C@H](CO)NC(=O)[C@H](CC(C)C)NC(=O)[C@H](CCC(=O)O)NC(=O)[C@@H](N)CCC(=O)O)C(=O)N[C@@H](CC(C)C)C(=O)N[C@@H](CCC(=O)O)C(=O)N[C@H](C(=O)N[C@@H](Cc1ccccc1)C(=O)O)C(C)C` [compound 681] gave a Degeneracy in assay [2] (setting [3]) of 4.
`CC[C@H](C)[C@H](NC(=O)[C@H](Cc1c[nH]cn1)NC(=O)[C@@H]1CCCN1C(=O)[C@H](CCC(=O)O)NC(=O)CN)C(=O)N[C@@H](CO)C(=O)N[C@@H](Cc1ccc(O)cc1)C(=O)N1CCC[C@H]1C(=O)N1CCC[C@H]1C(=O)N[C@@H](CC(C)C)C(=O)O` [compound 682] registered a Degeneracy in assay [2] (setting [3]) of 4.
For the compound `CC(C)C[C@H](NC(=O)[C@@H](NC(=O)[C@H](CO)NC(=O)[C@H](CO)NC(=O)[C@H](CO)NC(=O)[C@H](CO)NC(=O)[C@H](C)NC(=O)[C@@H](NC(=O)[C@H](CCC(N)=O)NC(=O)[C@H](CCC(N)=O)NC(=O)[C@H](CCC(=O)O)NC(=O)[C@@H](N)CCC(=O)O)[C@@H](C)O)[C@@H](C)O)C(=O)O` [compound 686], the Degeneracy in assay [2] (setting [3]) was 3.
Still for that read-out and setting: with `CC(C)C[C@H](NC(=O)[C@H](CC(C)C)NC(=O)[C@H](CC(C)C)NC(=O)[C@H](Cc1ccccc1)NC(=O)[C@H](Cc1c[nH]cn1)NC(=O)[C@@H](NC(=O)[C@H](CC(C)C)NC(=O)[C@H](CCC(=O)O)NC(=O)[C@@H](N)C(C)C)C(C)C)C(=O)N[C@@H](CCCCN)C(=O)N[C@@H](Cc1ccc(O)cc1)C(=O)O` [compound 689] the figure was 3.
For the compound `CC[C@H](C)[C@H](NC(=O)[C@@H]1CCCN1C(=O)[C@@H](NC(=O)[C@@H](NC(=O)[C@H](CCC(=O)O)NC(=O)[C@@H](N)C(C)C)C(C)C)C(C)C)C(=O)N[C@@H](CO)C(=O)N[C@@H](Cc1c[nH]cn1)C(=O)N[C@@H](CC(C)C)C(=O)N[C@@H](Cc1ccc(O)cc1)C(=O)O` [compound 692], the Degeneracy in assay [2] (setting [3]) came out at 3.
The same measure, in the same setting: with `CC(C)[C@H](NC(=O)[C@H](CO)NC(=O)[C@H](CC(=O)O)NC(=O)[C@H](CCC(=O)O)NC(=O)[C@H](CCCNC(=N)N)NC(=O)CNC(=O)[C@H](CCC(=O)O)NC(=O)[C@@H](N)Cc1ccccc1)C(=O)N[C@@H](Cc1ccccc1)C(=O)O` [compound 693] the figure was 3; with `CC(C)C[C@H](NC(=O)CNC(=O)[C@H](CCC(=O)O)NC(=O)[C@@H](N)CCC(=O)O)C(=O)N[C@@H](CCC(=O)O)C(=O)N[C@@H](C)C(=O)N[C@@H](CCCNC(=N)N)C(=O)NCC(=O)N[C@@H](CCC(=O)O)C(=O)N[C@@H](C)C(=O)O` [compound 694], 2.
`CSCC[C@H](NC(=O)[C@H](CCCNC(=N)N)NC(=O)[C@@H]1CCCN1C(=O)CNC(=O)[C@H](CCC(=O)O)NC(=O)[C@H](CCC(=O)O)NC(=O)[C@@H](N)CCC(=O)O)C(=O)N[C@@H](Cc1ccccc1)C(=O)N1CCC[C@H]1C(=O)N[C@@H](CC(=O)O)C(=O)N[C@@H](CC(C)C)C(=O)O` [compound 697]: in assay [2] (setting [3]), the Degeneracy was 2.
In the case of `CC[C@H](C)[C@H](NC(=O)[C@H](C)NC(=O)[C@H](C)NC(=O)[C@H](CCC(N)=O)NC(=O)[C@H](Cc1ccccc1)NC(=O)[C@H](CCC(=O)O)NC(=O)[C@@H](N)CO)C(=O)O` [compound 698], the Degeneracy in assay [2] (setting [3]) was 2.
Still for that read-out and setting: with `CSCC[C@H](NC(=O)[C@H](CCC(=O)O)NC(=O)[C@H](C)NC(=O)[C@H](CCCCN)NC(=O)[C@@H](NC(=O)[C@@H](NC(=O)[C@@H]1CCCN1C(=O)[C@H](CCC(=O)O)NC(=O)[C@@H](N)CCCNC(=N)N)C(C)C)[C@@H](C)O)C(=O)N[C@@H](CC(C)C)C(=O)N[C@@H](CCC(=O)O)C(=O)N[C@@H](CO)C(=O)N[C@H](C(=O)O)C(C)C` [compound 699] the figure was 2; with `CC(C)[C@H](NC(=O)[C@H](CO)NC(=O)[C@H](CC(=O)O)NC(=O)[C@H](CCC(=O)O)NC(=O)[C@@H](N)CCCNC(=N)N)C(=O)N[C@@H](Cc1ccccc1)C(=O)N[C@@H](C)C(=O)O` [compound 717], 0; with `CC(C)C[C@H](NC(=O)[C@H](Cc1ccc(O)cc1)NC(=O)[C@H](CC(N)=O)NC(=O)[C@H](CCC(=O)O)NC(=O)[C@@H](N)CCC(N)=O)C(=O)N[C@@H](CCC(=O)O)C(=O)N[C@@H](Cc1ccc(O)cc1)C(=O)O` [compound 718], 0.
